ChEMBL document CHEMBL3352379, “Potent heterocyclic ligands for human complement c3a receptor” (J Med Chem, 2014)

Target: T1, C3a anaphylatoxin chemotactic receptor (Homo sapiens) (UniProt Q16581)
T1 sequence (whole entry): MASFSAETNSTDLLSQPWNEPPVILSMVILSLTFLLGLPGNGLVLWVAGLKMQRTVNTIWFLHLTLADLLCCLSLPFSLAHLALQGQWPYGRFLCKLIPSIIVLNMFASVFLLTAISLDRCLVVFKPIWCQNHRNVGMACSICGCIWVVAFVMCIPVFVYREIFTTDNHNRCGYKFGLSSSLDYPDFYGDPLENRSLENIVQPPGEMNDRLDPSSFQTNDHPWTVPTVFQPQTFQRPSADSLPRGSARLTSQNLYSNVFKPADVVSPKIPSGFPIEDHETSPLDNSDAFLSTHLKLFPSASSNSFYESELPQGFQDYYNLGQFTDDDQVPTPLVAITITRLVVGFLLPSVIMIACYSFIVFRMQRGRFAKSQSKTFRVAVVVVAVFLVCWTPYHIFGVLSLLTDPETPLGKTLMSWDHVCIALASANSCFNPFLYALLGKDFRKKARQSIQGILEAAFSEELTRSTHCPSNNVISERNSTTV
Experiment: Partial agonist activity against C3AR in HMDMs assessed as increase in intracellular calcium release by Fluo-3 AM dye based FLIPR assay relative to 1 uM C3a
Type: functional, cell-based

**Q.** Which Activity does the source give for `N=C(N)NCCC[C@H](NC(=O)c1coc(C(c2ccccc2)c2ccccc2)n1)C(=O)O` here?
**A.** The Activity was under 50%.
